Source: patent US20190352268A1, “CANNABINOID RECEPTOR MEDIATING COMPOUNDS” (The USA, as represented by the Secretary, Department of …, priority 2015, published 2019)

Experiment: Tissue levels (brain and plasma) after administration to mice
Conditions: 1 hour after administration of 10 mg/kg to mice

CC(=N)N/C(=N\S(=O)(=O)c1ccc(Cl)cc1)N1C[C@H](c2ccccc2)C(c2ccc(Cl)cc2)=N1 [Compound 2E1]
brain tissue level relative to plasma level: < 2%
